Assay: Caco-2 assay (permeability across cell monolayers)
Assay type: in vitro ADME
Details: human, 1 μM compounds in HBSS (pH 7.4) containing 10 mM HEPES and 1% DMSO, 3 h incubation at 37 °C, read-out: Caco-2 permeability Pa
Description: The permeability assay across cell monolayers was conducted according to a previously reported procedure[57] using Millicell cell culture insert plates (Millipore). 4.2 × 10^4 Caco-2 cells were spread on each insert chamber and culture medium was added in a receiver plate. The cells were cultured in the insert chambers at 37 °C for 22–25 days. The trans-epithelial electrical resistance (TEER) was measured to confirm the value in each well is above 300 Ω cm^2. The medium in the lower chamber and upper chamber was removed by aspiration. 0.4 mL of transport buffer (HBSS buffer containing 10 mM HEPES, pH 7.4) was added to the upper chamber and 0.8 mL of the same buffer was added to the lower chamber. After incubating the plate for 30 min at 37 °C, the buffer was removed. 0.42 mL of peptide solution in transport buffer was added to the upper chamber and 20 μL was aliquoted. 0.8 mL of transport buffer was added to the lower chamber. For evaluation in the basolateral-to-apical direction, 0.82 mL of peptide solution in transport buffer was added to the lower chamber and 20 μL was aliquoted. 0.4 mL of transport buffer was added to the upper chamber. The plate was incubated at 37 °C. […] After incubating the plate at 37 °C for 1 h, 200 µL of lower chamber solution was transferred to a 96-well black plate and the fluorescence at ex/em = 485/538 nm was measured. […]

CC(C)C[C@@H]1NC(=O)[C@H](Cc2ccc(O)cc2)NC(=O)[C@H]2CCCN2C(=O)[C@H](CC(C)C)NC(=O)[C@H](CC(C)C)NC(=O)[C@@H](CC(C)C)NC1=O [CP1]
Papp at 3 h, 1 μM: 0.4 ×10⁻⁶ cm/s

Reference: PMC10023679, “Amide-to-ester substitution as a stable alternative to N-methylation for increasing membrane permeability in cyclic peptides” (Nature Communications, 2023)
